Ab-14 light chain CDR variants: yeast mating affinities

Binding partner: SARS-CoV-2 spike HR2 peptide, sequence PDVDLGDISGINAS.

The variants keep the heavy chain, the linker and the frameworks of Ab-14 (scFv order VH, a (GGGGS)3 linker, VL).
VH: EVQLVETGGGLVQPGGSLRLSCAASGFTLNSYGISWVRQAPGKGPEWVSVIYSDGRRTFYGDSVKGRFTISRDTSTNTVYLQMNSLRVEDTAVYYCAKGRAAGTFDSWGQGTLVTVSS
VL: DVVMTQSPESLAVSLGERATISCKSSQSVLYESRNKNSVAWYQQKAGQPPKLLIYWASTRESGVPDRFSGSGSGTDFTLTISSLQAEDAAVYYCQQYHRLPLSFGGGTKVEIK

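Designed CDR sequences, proposed from the first random library and measured here. Their group label is 14L_GP_Gen (GP: Gaussian process model; Gen: genetic algorithm; a sequence that several methods proposed may carry one label only). In AlphaSeq, yeast of one mating type display the scFv and yeast of the other type display the target. The frequency of each diploid, read from paired DNA barcodes, reflects how well the two displayed proteins bind. A regression on co-assayed BCL2-family reference pairs converts the normalised counts of each replicate to an apparent Kd. There are six technical replicates.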

Variants are written as CDR1, CDR2 and CDR3 of the light chain (limits as in the source). Parent: KSSQSVLYESRNKNSVA, WASTRES, QQYHRLPLS. Numbers give log10(Kd / nM), so 0 is 1 nM and 3 is 1 µM. Smaller is tighter. Background: pairings of all light chain designs with three empty control strains gave a value in 4% of cases (median 2.64, 5th percentile 1.59). Values in that range, when seen in few replicates, are hard to tell from nonspecific mating. The control count says in how many pairings with the empty strains this scFv gave a signal, with their mean in brackets.

| # | CDR-L1 | CDR-L2 | CDR-L3 | log10 Kd (nM) by replicate | control signals |
|---|---|---|---|---|---|
| 1 | KLSQSVLYESRNKNSVA | EASTRCS | QQYHRLPLS | 0.31 0.21 0.17 0.17 0.54 0.45 | 0/18 |
| 2 | KLEGSQLYESRNKNSVA | EASTRES | QQYHRLPLS | -0.06 0.34 0.13 0.18 0.02 0.10 | 0/18 |
| 3 | KLSQSNLYESRNKNSVA | NASQREQ | QQYHRLPLS | 0.44 0.36 -0.29 0.05 -0.19 -0.43 | 0/18 |
| 4 | KISQSVLYESRNKNSVA | NASTREV | QQYHRLPLS | -0.05 0.11 -0.03 -0.17 -0.16 0.05 | 1/18 (2.75) |
| 5 | KLSMSMLYESRNKNSVA | DASTRES | QQYHRLPLS | 0.24 0.04 0.19 -0.31 -0.21 0.24 | 0/18 |
| 6 | KLDQSVLYESRNKNSVA | NASQREQ | QQYHRLPLS | -0.29 -0.40 -0.60 -0.68 -0.58 -0.39 | 2/18 (2.60) |
| 7 | KLSQSVEYESRNKNSVA | NASQRLS | QQYHRLPLS | 0.35 0.34 -0.06 -0.11 0.08 0.22 | 0/18 |
| 8 | KMPQSWLYESRNKNSVA | NASQRES | QQYHRLPLS | -0.09 -0.19 -0.26 -0.36 -0.16 0.05 | 2/18 (3.04) |
| 9 | KLSQSDLYESRNKNSVA | NASTREK | QQYHRLPLS | -0.07 0.00 0.02 -0.25 -0.03 0.05 | 6/18 (3.01) |
| 10 | KFSQSVLYESRNWNSVA | NASTRES | QQYHRLPLS | 0.13 0.16 -0.13 0.02 0.00 0.14 | 1/18 (2.23) |
| 11 | KLPQSTLYESRNKNSVA | NASTRES | QQYHRLPLS | -0.32 -0.62 -0.50 -0.60 -0.71 -0.47 | 1/18 (3.95) |
| 12 | KLQQSWLYESRNKNSVA | NASTRES | QQYHRLPLS | 0.07 -0.06 0.00 -0.26 -0.04 0.02 | 1/18 (2.32) |
| 13 | KLSQSVLYESRNENSVA | NASTRES | QQYHRLPLS | 0.32 0.25 0.20 0.09 0.15 0.20 | 1/18 (2.68) |
| 14 | KQSQSVLYESRNKNNVA | EASTRES | QQYHRLPLS | 0.15 0.02 -0.05 -0.33 0.04 0.21 | 2/18 (2.24) |
| 15 | KLPQSVLYESRMKNSVA | NASTRES | QQYHRLPLS | -0.43 -0.68 -0.78 -1.04 -0.64 -0.22 | 0/18 |
| 16 | KLSQLWLYESRNKNSVA | NASTRLS | QQYHRLPLS | 0.39 0.38 0.28 0.52 0.33 0.82 | 2/18 (2.70) |
| 17 | KLMQSVEYESRNKNSVA | NASTRES | QQYHRLPLS | -0.26 0.00 0.06 -0.19 -0.31 -0.06 | 1/18 (2.40) |
| 18 | KLQQSWGYESRNKNSVA | HASTRES | QQYHRLPLS | 0.18 0.02 -0.09 -0.09 0.11 -0.02 | 2/18 (2.99) |
| 19 | KLSQSVWYESRNKNSVA | NASQRES | QQYHRLPLS | 0.01 0.06 0.28 -0.12 0.04 0.25 | 2/18 (2.58) |
| 20 | HLSQSVLYESRNKNSVA | NASTRMS | QQYHRLPLS | -0.18 -0.30 -0.42 -0.43 -0.42 -0.24 | 1/18 (2.35) |
| 21 | KLQQSVLYESRNKNSVA | SASTRLS | QQYHRLPLS | -0.05 -0.08 -0.15 -0.31 -0.16 -0.04 | 6/18 (3.17) |
| 22 | KVQQSQLYESRNKNSVA | EASTRES | QQYHRLPLS | -0.15 -0.35 -0.14 -0.40 -0.23 -0.14 | 2/18 (3.02) |
| 23 | KLSQSWLYESRNKNSVA | GASTRLS | QQYHRLPLS | 0.55 0.45 0.31 0.45 0.34 0.53 | 0/18 |
| 24 | KLQQSVLYESRNKNSVA | HASTRCD | QQYHRLPLS | 0.52 -0.30 -0.12 0.01 -0.31 -0.11 | 1/18 (4.26) |
| 25 | KVSQSKLYESRNKNNVA | EASTRES | QQYHRLPLS | -0.20 -0.37 -0.47 -0.33 -0.47 -0.09 | 1/18 (2.17) |
| 26 | KLQQSVLYESRNKNSVA | NASTRME | QQYHRLPLS | -0.32 -0.10 -0.59 -0.44 -0.42 -0.36 | 0/18 |
| 27 | KLQQSVLYESRNKNSVA | DASTRCS | QQYHRLPLS | 0.56 0.89 1.07 0.38 0.66 0.83 | 0/18 |
| 28 | KLSQSWLYESRNKNSVA | NASKRES | QQYHRLPLS | 0.38 -0.57 -0.65 -0.70 -0.18 -0.43 | 0/18 |
| 29 | KIMQSVLYESRNKNSVA | NASTRMS | QQYHRLPLS | 1.13 0.52 0.24 0.31 -0.10 0.61 | 0/18 |
| 30 | KLSESVLYESRNKNSVA | NASTRLS | QQYHRLPLS | 0.31 0.07 -0.03 -0.26 0.21 0.20 | 1/18 (3.52) |
| 31 | KVSQSVLYEQRNKNSVA | DASTRES | QQYHRLPLS | -0.10 -0.05 0.15 -0.04 -0.15 -0.03 | 0/18 |
| 32 | KLSESVLYESRNKNSVA | EASTRLS | QQYHRLPLS | -0.11 -0.09 -0.35 -0.25 -0.12 0.08 | 1/18 (1.90) |
| 33 | KVSQSVLYESRNKNSVA | DASQRES | QQYHRLPLS | 0.91 0.51 0.29 0.74 0.67 1.05 | 0/18 |
| 34 | KLYQSVLYESRNKNSVA | EASTRES | QQYHRLPLS | 0.20 -0.12 0.12 0.19 -0.06 0.25 | 1/18 (2.39) |
| 35 | KLSQSVLYESRNSNSVA | NASTREV | QQYHRLPLS | 0.07 0.59 0.09 -0.08 0.17 -0.02 | 0/18 |
| 36 | KLSQSVLYESRNTNSVA | EASTRES | QQYHRLPLS | 0.12 0.15 0.24 -0.13 0.41 0.34 | 1/18 (1.70) |
| 37 | KLSQSVLYESRNKNSVA | NASTREE | QQYHRLPLM | 0.14 0.14 0.01 -0.12 -0.11 0.13 | 1/18 (4.41) |
| 38 | KSSQSMLYESRNKNSVA | NASQRES | QQYHRLPLS | 0.00 -0.19 -0.28 -0.38 -0.18 -0.08 | 2/18 (2.49) |
| 39 | KVSQSYLYESRNKNSVA | NASTRES | QQYHRLPLS | -0.29 -0.24 -0.35 -0.42 -0.46 -0.17 | 0/18 |
| 40 | KLSQSELYESRNKNSVA | NASQRCS | QQYHRLPLS | 1.83 0.53 1.20 0.59 1.07 1.08 | 0/18 |
| 41 | KLSQSVLYESRLKNSVA | GASTRES | QQYHRLPLS | 0.88 0.80 0.54 0.58 0.45 0.56 | 1/18 (2.40) |
| 42 | KLSQSHLYESRNKNSVA | EASTRES | QQYHRLPLS | -0.27 -0.34 -0.41 -0.56 -0.50 -0.03 | 0/18 |
| 43 | KVSQSSLYESRNKNSVA | NASTRES | QQYHRLPLS | -0.14 -0.15 -0.17 -0.34 -0.38 -0.12 | 1/18 (2.21) |

Values of this round are not directly comparable with the first-round values of the same sequences. The authors' rule: three or more of the six replicates give a measured affinity, fewer mean a poor binder.

The measurements come from Li et al. 2023 (doi:10.1038/s41467-023-39022-2) through the FLAb antibody collection.